Laboratory results: patent US11505782B2 (priority 2018, dated 2022)

Tested on: JAK1/JAK2
Type: cell-based, human
Conditions: 48 h

IFNγ
Average Fluorescence Intensity Density: 0.06 | decrease in TurboFP635 fluorescence compared to control cells: 17.8%
